The source of these data is PMC7048932, “Examining sterically demanding lysine analogs for histone lysine methyltransferase catalysis” (Scientific Reports, 2020).

Amino acid sequences for entries named in this document (tags omitted). A change or cut given only in a name is not applied to a line headed by its entry.
UniProt Q9NQR1: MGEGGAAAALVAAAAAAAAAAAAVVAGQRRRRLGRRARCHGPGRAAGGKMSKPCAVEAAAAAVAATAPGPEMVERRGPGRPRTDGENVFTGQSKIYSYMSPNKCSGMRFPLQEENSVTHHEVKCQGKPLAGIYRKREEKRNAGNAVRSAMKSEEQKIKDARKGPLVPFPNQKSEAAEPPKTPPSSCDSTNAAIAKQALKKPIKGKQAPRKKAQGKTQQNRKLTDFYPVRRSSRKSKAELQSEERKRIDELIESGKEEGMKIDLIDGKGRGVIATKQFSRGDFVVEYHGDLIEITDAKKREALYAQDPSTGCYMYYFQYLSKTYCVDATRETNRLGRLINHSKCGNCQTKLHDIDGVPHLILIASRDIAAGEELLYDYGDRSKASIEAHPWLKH

This assay has as its target SETD8 (human) (UniProt Q9NQR1).

H4K20 histone peptide came in with a degree of monomethylation by SETD8 with SAM in competition with an equimolar amount of H4KCP20 (MALDI-TOF MS) of 70%.
